Key:
[1] = biological target: human recombinant 5-HT2Cedited receptor (Homo sapiens, UniProt P28335, I156V/N158S/I160V); assay: Serotonin 5-HT2C in vitro cellular IPOne agonism assay; details: read-out: 5HT2C IPOne Agonism Activity; CHO-K1 cells, IPOne HTRF, agonist mode
[2] = biological target: 5-HT2Cedited (accession number AAF35842.1) (Homo sapiens, UniProt P28335, I156V/N158S/I160V); assay: Serotonin 5-HT2C in vitro radioligand binding competition assay ([3H]-DOI); details: read-out: 5HT2C Radioligand Binding Activity; [3H]-DOI competition, membrane extracts
[3] = biological target: human recombinant 5-HT2C receptor (Homo sapiens, UniProt P28335, I156V/I160V/N158S); assay: Serotonin 5-HT2C in vitro cellular IPOne antagonism assay; details: read-out: 5HT2C IPOne Antagonism Activity; CHO-K1 cells, IPOne HTRF, reference agonist a-Me-5HT

The chains behind the UniProt entries cited, without tags or fusion partners. Residues count along the entry.
UniProt P28335, whole entry I156V/N158S/I160V, looked up: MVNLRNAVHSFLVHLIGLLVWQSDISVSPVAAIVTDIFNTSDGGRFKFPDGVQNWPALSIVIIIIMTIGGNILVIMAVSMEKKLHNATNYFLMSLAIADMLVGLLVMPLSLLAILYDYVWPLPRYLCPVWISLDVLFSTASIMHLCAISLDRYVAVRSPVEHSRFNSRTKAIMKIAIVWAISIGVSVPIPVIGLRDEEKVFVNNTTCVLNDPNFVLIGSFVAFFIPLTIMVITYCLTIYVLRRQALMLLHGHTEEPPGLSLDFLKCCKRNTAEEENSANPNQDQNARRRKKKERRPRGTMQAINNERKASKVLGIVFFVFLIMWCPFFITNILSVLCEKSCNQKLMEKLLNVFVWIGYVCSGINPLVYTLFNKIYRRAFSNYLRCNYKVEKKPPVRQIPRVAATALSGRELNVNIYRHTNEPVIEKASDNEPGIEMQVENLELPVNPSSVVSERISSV
UniProt P28335, 33-458 I156V/N158S/I160V limits assumed: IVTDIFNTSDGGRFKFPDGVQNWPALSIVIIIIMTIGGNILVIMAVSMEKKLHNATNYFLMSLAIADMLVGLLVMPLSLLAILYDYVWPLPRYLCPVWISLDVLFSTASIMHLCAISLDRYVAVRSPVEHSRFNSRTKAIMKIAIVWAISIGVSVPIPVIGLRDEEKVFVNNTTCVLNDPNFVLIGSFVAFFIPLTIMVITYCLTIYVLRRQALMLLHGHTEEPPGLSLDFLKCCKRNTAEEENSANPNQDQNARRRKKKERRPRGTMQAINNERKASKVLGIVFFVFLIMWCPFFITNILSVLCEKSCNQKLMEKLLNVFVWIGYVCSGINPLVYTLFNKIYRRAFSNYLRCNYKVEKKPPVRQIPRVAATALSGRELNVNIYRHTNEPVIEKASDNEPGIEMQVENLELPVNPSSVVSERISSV

For `Cc1cn(C2CNC2)c2ccc(F)cc12` [Compound 1, 1-(azetidin-3-yl)-5-fluoro-3-methyl-1H-indole], which EC50 [1] is on record?
The EC50 was 101 to 1000 nM.

How did the EC50 [1] turn out when `Fc1ccc2c(ccn2C2CNC2)c1F` [Compound 2, 1-(azetidin-3-yl)-4,5-difluoro-1H-indole] was run?
The EC50 was 101 to 1000 nM.

Which EC50 [1] does the source give for `Cc1cn(C2CCNCC2)c2ccc(F)cc12` [Compound 3, 5-fluoro-3-methyl-1-(piperidin-4-yl)-1H-indole] here?
Its EC50 is 101 to 1000 nM.

For `Fc1ccc2c(ccn2C2CCNCC2)c1F` [Compound 4, 4,5-difluoro-1-(piperidin-4-yl)-1H-indole], which EC50 [1] is on record?
The EC50 was 101 to 1000 nM.

Which EC50 [1] does the source give for `Cc1cn(C2CN(C)C2)c2ccc(F)cc12` [Compound 5, 5-fluoro-3-methyl-1-(1-methylazetidin-3-yl)-1H-indole] here?
The EC50 was 101 to 1000 nM.

With `CN1CC(n2ccc3c(F)c(F)ccc32)C1` [Compound 6, 4,5-Difluoro-1-(1-methylazetidin-3-yl)-1H-indole] as the compound, how does the EC50 [1] read?
The EC50 was 101 to 1000 nM.

Which IC50 [2] does the source give for `Cc1cn(C2CCN(C)C2)c2ccc(F)cc12` (stereo not drawn) [Compound 7, 5-Fluoro-3-methyl-1-(1-methylpyrrolidin-3-yl)-1H-indole] here?
Its IC50 is 101 to 1000 nM.

What about the EC50 [1] of the same compound?
Its EC50 is 101 to 1000 nM.

How did the EC50 [1] turn out when `CN1CCC(n2ccc3c(F)c(F)ccc32)C1` (stereo not drawn) [Compound 8, 4,5-difluoro-1-(1-methylpyrrolidin-3-yl)-1H-indole] was run?
Its EC50 is 10 to 100 nM.

How did the EC50 [1] turn out when `Cc1cn(C2CCN(C)CC2)c2ccc(F)cc12` [Compound 9, 5-fluoro-3-methyl-1-(1-methylpiperidin-4-yl)-1H-indole] was run?
Its EC50 is 101 to 1000 nM.

`CN1CCC(n2ccc3c(F)c(F)ccc32)CC1` [Compound 10, 4,5-difluoro-1-(1-methylpiperidin-4-yl)-1H-indole] was tested. Which EC50 [1] did it give?
Its EC50 is 101 to 1000 nM.

`CC(C)c1cn(C2CCN(C)C2)c2ccc(F)cc12` (stereo not drawn) [Compound 11, 5-fluoro-3-isopropyl-1-(1-methylpyrrolidin-3-yl)-1H-indole] was tested. Which EC50 [1] did it give?
The EC50 was over 10000 nM.

Which results are given for `CN1CCC(n2cc(-c3ccccc3)c3cc(F)ccc32)C1` (stereo not drawn) [Compound 12, 5-fluoro-1-(1-methylpyrrolidin-3-yl)-3-phenyl-1H-indole]?
IC50 [2]: 101 to 1000 nM; EC50 [1]: > 10000 nM; IC50 [3]: 1000 to 10000 nM

Which IC50 [2] does the source give for `Cc1cn(C2CCN(C)C2)c2ccc(OC3COC3)cc12` (stereo not drawn) [Compound 13, 3-Methyl-1-(1-methylpyrrolidin-3-yl)-5-(oxetan-3-yloxy)-1H-indole] here?
The IC50 was 1000 to 10000 nM.

And the EC50 [1]?
The EC50 was 1000 to 10000 nM.

What does the source list for `Fc1ccc2c(ccn2C2CCNC2)c1F` (stereo not drawn) [Compound 15, 4,5-Difluoro-1-(pyrrolidin-3-yl)-1H-indole]?
IC50 [2]: 10 to 100 nM; EC50 [1]: 10 to 100 nM

For `CCN1CCC(n2cc(C)c3cc(F)ccc32)C1` (stereo not drawn) [Compound 16, 1-(1-Ethylpyrrolidin-3-yl)-5-fluoro-3-methyl-1H-indole], which IC50 [2] is on record?
The IC50 was 101 to 1000 nM.

What about the EC50 [1] of the same compound?
Its EC50 is 101 to 1000 nM.

How did the IC50 [2] turn out when `CCN1CCC(n2ccc3c(F)c(F)ccc32)C1` (stereo not drawn) [Compound 17, 1-(1-ethylpyrrolidin-3-yl)-4,5-difluoro-1H-indole] was run?
Its IC50 is 101 to 1000 nM.

And the EC50 [1]?
The EC50 was 101 to 1000 nM.

And the IC50 [3]?
The IC50 was over 10000 nM.

`Cc1cn(C2CCN(C(C)C)C2)c2ccc(F)cc12` (stereo not drawn) [Compound 18, 5-fluoro-1-(1-isopropylpyrrolidin-3-yl)-3-methyl-1H-indole] was tested. Which IC50 [2] did it give?
The IC50 was 1000 to 10000 nM.

What about the EC50 [1] of the same compound?
Its EC50 is over 10000 nM.

What does the source list for `CC(C)N1CCC(n2ccc3c(F)c(F)ccc32)C1` (stereo not drawn) [Compound 19, 4,5-difluoro-1-(1-isopropylpyrrolidin-3-yl)-1H-indole]?
IC50 [2]: 1000 to 10000 nM; EC50 [1]: 1000 to 10000 nM

For `Cc1cn(C2CCN(C3COC3)C2)c2ccc(F)cc12` (stereo not drawn) [Compound 20, 5-fluoro-3-methyl-1-(1-(oxetan-3-yl)pyrrolidin-3-yl)-1H-indole], which IC50 [2] is on record?
The IC50 was over 10000 nM.

And the EC50 [1]?
Its EC50 is over 10000 nM.

How did the IC50 [2] turn out when `Fc1ccc2c(ccn2C2CCN(C3COC3)C2)c1F` (stereo not drawn) [Compound 21, 4,5-difluoro-1-(1-(oxetan-3-yl)pyrrolidin-3-yl)-1H-indole] was run?
The IC50 was over 10000 nM.

And the EC50 [1]?
The EC50 was over 10000 nM.

With `COCCN1CCC(n2cc(C)c3cc(F)ccc32)C1` (stereo not drawn) [Compound 22, 5-Fluoro-1-(1-(2-methoxyethyl)pyrrolidin-3-yl)-3-methyl-1H-indole] as the compound, how does the IC50 [2] read?
Its IC50 is 1000 to 10000 nM.

What about the EC50 [1] of the same compound?
Its EC50 is 1000 to 10000 nM.

`COCCN1CCC(n2ccc3c(F)c(F)ccc32)C1` (stereo not drawn) [Compound 23, 4,5-Difluoro-1-(1-(2-methoxyethyl)pyrrolidin-3-yl)-1H-indole] was tested. Which IC50 [2] did it give?
The IC50 was 1000 to 10000 nM.

And the EC50 [1]?
The EC50 was 101 to 1000 nM.

And the IC50 [3]?
The IC50 was over 10000 nM.

Which EC50 [1] does the source give for `Clc1ccc2c(ccn2C2CNC2)c1` [Compound 24, 1-(azetidin-3-yl)-5-chloro-1H-indole] here?
Its EC50 is 1000 to 10000 nM.

And the IC50 [3]?
The IC50 was over 10000 nM.

`N#Cc1ccc2c(ccn2C2CNC2)c1` [Compound 25, 1-(azetidin-3-yl)-1H-indole-5-carbonitrile] was tested. Which IC50 [2] did it give?
Its IC50 is over 10000 nM.

What about the EC50 [1] of the same compound?
The EC50 was over 10000 nM.

And the IC50 [3]?
Its IC50 is over 10000 nM.

What does the source list for `Fc1cccc2ccn(C3CNC3)c12` [Compound 26, 1-(azetidin-3-yl)-7-fluoro-1H-indole]?
IC50 [2]: 101 to 1000 nM; EC50 [1]: 101 to 1000 nM; IC50 [3]: > 10000 nM

`Fc1ccc2c(ccn2C2CNC2)c1` [Compound 27, 1-(azetidin-3-yl)-5-fluoro-1H-indole] was tested. Which EC50 [1] did it give?
Its EC50 is 101 to 1000 nM.

What about the IC50 [3] of the same compound?
The IC50 was over 10000 nM.

Which results are given for `Fc1ccc2ccn(C3CNC3)c2c1` [Compound 28, 1-(azetidin-3-yl)-6-fluoro-1H-indole]?
IC50 [2]: 10 to 100 nM; EC50 [1]: 101 to 1000 nM; IC50 [3]: > 10000 nM

Which results are given for `COc1ccc2c(ccn2C2CNC2)c1` [Compound 29, 1-(azetidin-3-yl)-5-methoxy-1H-indole]?
IC50 [2]: 1000 to 10000 nM; EC50 [1]: > 10000 nM; IC50 [3]: > 10000 nM

With `CN1CC(n2ccc3cc(F)ccc32)C1` [Compound 30, 5-fluoro-1-(1-methylazetidin-3-yl)-1H-indole] as the compound, how does the EC50 [1] read?
Its EC50 is 1000 to 10000 nM.

What about the IC50 [3] of the same compound?
Its IC50 is over 10000 nM.

What does the source list for `COc1ccc2c(ccn2C2CN(C)C2)c1` [Compound 31, 5-methoxy-1-(1-methylazetidin-3-yl)-1H-indole]?
IC50 [2]: 1000 to 10000 nM; EC50 [1]: > 10000 nM; IC50 [3]: > 10000 nM

Which IC50 [2] does the source give for `CN1CC(n2ccc3c(F)cccc32)C1` [Compound 32, 4-fluoro-1-(1-methylazetidin-3-yl)-1H-indole] here?
The IC50 was 10 to 100 nM.

What about the EC50 [1] of the same compound?
The EC50 was 101 to 1000 nM.

And the IC50 [3]?
The IC50 was over 10000 nM.

Which EC50 [1] does the source give for `CN1CC(n2ccc3ccc(F)cc32)C1` [Compound 33, 6-fluoro-1-(1-methylazetidin-3-yl)-1H-indole] here?
Its EC50 is 101 to 1000 nM.

And the IC50 [3]?
The IC50 was over 10000 nM.

How did the IC50 [2] turn out when `CN1CC(n2ccc3cccc(F)c32)C1` [Compound 34, 7-fluoro-1-(1-methylazetidin-3-yl)-1H-indole] was run?
The IC50 was 10 to 100 nM.

What about the EC50 [1] of the same compound?
The EC50 was 101 to 1000 nM.

What about the IC50 [3] of the same compound?
The IC50 was over 10000 nM.

With `Cc1ccc2c(ccn2C2CN(C)C2)c1` [Compound 35, 5-methyl-1-(1-methylazetidin-3-yl)-1H-indole] as the compound, how does the IC50 [2] read?
The IC50 was 101 to 1000 nM.

And the EC50 [1]?
The EC50 was over 10000 nM.

What about the IC50 [3] of the same compound?
Its IC50 is 1000 to 10000 nM.

Which results are given for `CN1CC(n2ccc3cc(Cl)ccc32)C1` [Compound 36, 5-chloro-1-(1-methylazetidin-3-yl)-1H-indole]?
IC50 [2]: > 10000 nM; EC50 [1]: > 10000 nM; IC50 [3]: > 10000 nM

With `CN1CC(n2ccc3cc(C#N)ccc32)C1` [Compound 37, 1-(1-methylazetidin-3-yl)-1H-indole-5-carbonitrile] as the compound, how does the IC50 [2] read?
Its IC50 is over 10000 nM.

What about the EC50 [1] of the same compound?
The EC50 was over 10000 nM.

And the IC50 [3]?
The IC50 was over 10000 nM.
